In PubChem BioAssay AID1222 (Sanford-Burnham Center for Chemical Genomics, 2008):
This is one part of the list. Entries with a potency or affinity are not part of this list. Some tests of the compounds listed are not included; inactive here does not mean inactive elsewhere. Calls of active or inactive are those of the source.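 Rule for the calls: active = EC50 below 50 µM in the dose-response confirmation; inactive = the rest.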

Assay: protection against thapsigargin-triggered cell killing – 384-well, CSM14.1, ATP luminescence, primary screen (AID 1222);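 note: death triggered by thapsigargin at about 15 µM added after 2 h compound pretreatment; cell ATP read after overnight thapsigargin exposure of roughly 18 to 22 hours; reference of the scale not given here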
Details: CSM14.1 thapsigargin-induced death rescue, at 20 µM, stronger effect = higher value

Row | Compound | cellular ATP content (survival)
1 | C=CCN1CCN(CCOC(=O)C(O)(c2ccccc2)c2ccccc2)CC1 | inactive: -1.4%
2 | CCN1CCCC(OC(=O)C2(O)c3ccccc3C=Cc3ccccc32)C1 (stereo not drawn) | inactive: -0.6%
3 | Cc1ccccc1C(=O)NCC1(N2CCCCC2)CCCCC1 | inactive: -1.7%
4 | CN(C)C1CCCC1OC(=O)C(O)(c1ccccc1)c1ccccc1 (stereo not drawn) | inactive: -2.9%
5 | CC(C)N1C(=O)CC2(CCN(CCOC(=O)C(O)(c3ccccc3)c3ccccc3)CC2)C1=O | inactive: -1.1%
6 | O=C(NCC1(N2CCCCC2)CCCCC1)c1cc([N+](=O)[O-])ccc1Cl | inactive: -1.8%
7 | CN(C)c1cccc(C(=O)NCC2(N(C)C)CCCCC2)c1 | inactive: 1.3%
8 | COc1cccc(C(=O)NCC2(N3CCCCC3)CCCCC2)c1 | inactive: -2.1%
